Measurements as given in the supplement of paper PMC9135407.
Where a name gives a salt, the structure may show the parent alone. The list shows a part of the results, in another mix than the full data.

These molecules were tested on primary human hepatic stellate cells (donor 1) (assay: PSMB2 reference mRNA level vs DMSO (fold); higher = more PSMB2 expression). Details: 33.3333 µM; 48 h.
Protocol: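 Secondary qRT-PCR screen in primary human HSCs (donor 1), 384-well plates, with compounds dispensed in quadruplicate and incubated for 48 h. Cells-to-CT lysates were used for multiplexed TaqMan qPCR of ACTA2 or COL1A1 with PSMB2 as reference. Fold changes versus DMSO come from a linear model (Ct_gene ~ Ct_PSMB2 + plate + chemical). A hit is defined as COL1A1 and ACTA2 FC <0.5 (FDR <0.05) with PSMB2 between 0.2 and 2.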
With `N/C(=N/CCc1ccc(I)cc1)SCCCc1cnc[nH]1` [Iodophenpropit dihydrobromide] the “PSMB2 reference mRNA level” value was 0.0605.
